Literature values in article PMC8477420 (ChemMedChem, 2020).

The chains behind the UniProt entries cited, without tags or fusion partners.
UniProt Q00987, whole entry: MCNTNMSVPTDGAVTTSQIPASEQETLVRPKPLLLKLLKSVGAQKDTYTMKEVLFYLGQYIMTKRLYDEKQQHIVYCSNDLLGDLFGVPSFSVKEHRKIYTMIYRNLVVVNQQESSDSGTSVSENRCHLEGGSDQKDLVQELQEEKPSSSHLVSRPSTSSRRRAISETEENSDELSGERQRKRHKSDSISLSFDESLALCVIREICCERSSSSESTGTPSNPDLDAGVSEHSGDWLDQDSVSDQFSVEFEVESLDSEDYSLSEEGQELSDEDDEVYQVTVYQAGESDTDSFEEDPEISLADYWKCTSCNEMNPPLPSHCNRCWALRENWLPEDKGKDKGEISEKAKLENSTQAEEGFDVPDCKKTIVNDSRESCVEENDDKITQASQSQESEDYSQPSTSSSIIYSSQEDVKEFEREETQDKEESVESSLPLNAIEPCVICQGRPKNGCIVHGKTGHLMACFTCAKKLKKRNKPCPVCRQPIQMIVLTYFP

Target: HDM2 (Homo sapiens, UniProt Q00987)

For `COc1ccc(C2=N[C@@H](c3ccc(Cl)cc3)[C@@H](c3ccc(Cl)cc3)N2C(=O)N2CCNC(=O)C2)c(OC(C)C)c1` [Nutlin-3a], the “inhibition of HDM2” value is given as “nanomolar inhibitor”.
